Values of other authors, collected in patent publication EP1222183B1, “BENZOPYRAN DERIVATIVES” (priority 1999, dated 2001).

Tested on: diastolic blood pressure
Details: dog, i.v., dose lowering diastolic blood pressure by 25%; data from Leonardi A. et al. 1997; cited from earlier work

SMILES: COc1cc2nc(N3CCN(C(=O)C4CCCO4)CC3)nc(N)c2cc1OC (stereo not shown) [Terazosin, terazosin]
- DBP ED25: 0.0614 mg/kg
